In patent US20110028509A1, “Sulfonamides” (MERCK SERONO SA, priority 2008, published 2011):

Assays:
[1] = biological target: T1, CXCR3 (Homo sapiens, UniProt P49682); assay: Chemotaxis assay IP10, L1.2 recombinant cells expressing hCXCR3; assay type: cell-based; conditions: L1.2 hCXCR3 cells, IP10 around 0.3 nM, 4 hours
T1 sequence (P49682 1-368): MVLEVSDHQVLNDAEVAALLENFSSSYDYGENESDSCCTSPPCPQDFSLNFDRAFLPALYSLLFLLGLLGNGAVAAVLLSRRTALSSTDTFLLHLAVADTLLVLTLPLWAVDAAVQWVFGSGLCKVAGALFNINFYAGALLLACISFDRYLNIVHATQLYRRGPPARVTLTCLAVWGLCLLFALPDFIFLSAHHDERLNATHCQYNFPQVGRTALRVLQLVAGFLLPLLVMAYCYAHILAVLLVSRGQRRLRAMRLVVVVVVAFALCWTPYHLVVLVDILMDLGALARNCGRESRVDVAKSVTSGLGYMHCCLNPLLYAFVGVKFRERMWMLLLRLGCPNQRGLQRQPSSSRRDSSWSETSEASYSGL
Protocol: Human CXCR3 cDNA was amplified by PCR from a human cells cDNA library (Clontech) and subcloned into pcDNA3.1 (Invitrogen). Murine pre-B L1.2 cells were transfected with hCXCR3-pcDNA3.1 and were grown at 37° C., 5% CO2 in RPMI 1640 medium (Invitrogen, USA) supplemented with 5% heat inactivated fetal calf serum (Cancerra, Australia), 2 mM glutamine (Invitrogen), 50 units ml−1 penicillin, 50 μml−1 streptomycin. Stable transfectant clonal populations were selected using 800 μg/ml geneticin. […]
CXCR3 chemokine was diluted with a serial dilution of compounds in the chemotaxis medium (white RPMI 1640 (invitrogen), 5% Foetal Bovine Serum (invitrogen) at 1% DMSO final (chemotaxis medium). The concentration of the ligand IP10 was determined according to the EC80 to be around 0.3 nM. The chemokine/compounds solution was then added in the lower chamber of a chemotaxis system (neuroprobe). A framed filter (8 uM pore size) was placed on the lower chamber. L1.2 cells were centrifuged and resuspended in chemotaxis medium at 3×10^6 cells/ml and then diluted with the same serial dilution of compounds at 1% DMSO final. […] Cell migration ratio was calculated using the cyquant dye (Molecular Probes-C7026).

[2] = biological target: T1, CXCR3; assay: CXCR3 Ca2+ mobilization (FLIPR), stable hCXCR3-CHO cell line, I-TAC stimulated; assay type: cell-based; parameters: host or cells: CHO cells stably expressing hCXCR3; conditions: hCXCR3-CHO cells, I-TAC 100 nM stimulated Ca2+ response; read-out: Ca-ITAC
Protocol: Human chinese hamster ovary (CHO) cell line stably expressing hCXCR3 was purchased from Euroscreen (Belgium) and culture in HAM's F12 (Invitrogen) containing 10% heat inactivated fetal calf serum (Cancerra, Australia), 50 units ml−1 penicillin, 50 μml−1 streptomycin, (Invitrogen, USA) and 400 μg/ml geneticin (G418) (Calbiochem, San Diego), according to the manufacturer.
CXCR3Ca^2+ mobilization was measured using a stable hCXCR3—CHO cell line and a microtiter-plate based assay using FLIPR^TETRA™ (Molecular Devices). In more detail, cells were harvested and plated into black 384-well plates (Becton-Dickinson) at a density of 15 000 cells per well and grown in the incubator for 18 hours. On the next day the media was aspirated and replaced with the cell loading buffer (HBSS—(Invitrogen) based buffer containing calcium indicator and signal enhancer from a commercial Ca2+ assay kit (Becton Dickinson). The plates were incubated for 60 minutes in the incubator, the test compounds were added and the plates equilibrated for 20 minutes at room temperature.
Plates were placed into FLIPR and the CXCR3 agonist (I-TAC, 100 nM) stimulated fluorescence change was quantitated. The activity of CXCR3 antagonists was determined as percent of the CXCR3 ligand I-TAC in the absence of the test compounds (=100% activity).

## O=S(=O)(c1ccc(Cl)cc1)N(Cc1ccc(-c2nnn[nH]2)c(F)c1)Cc1ccccc1F [Example 82, 4-chloro-N-(2-fluorobenzyl)-N-[3-fluoro-4-(2H-tetrazol-5-yl)benzyl]benzenesulfonamide]
[1]
  IC50: 0.157 µM
[2]
  IC50: 150 nM
